Binding of CDR-mutated scFvs to a peptide of the spike HR2 region

Data: MIT Lincoln Laboratory AlphaSeq set, Engelhart et al. 2022, doi:10.1038/s41597-022-01779-4, as distributed in FLAb.

Binding partner: SARS-CoV-2 spike HR2 peptide, sequence PDVDLGDISGINAS.

Each scFv is VH, the linker GGGGSGGGGSGGGGS, VL, as in the parent Ab-14, and differs from it in the CDRs of the light chain only.
VH: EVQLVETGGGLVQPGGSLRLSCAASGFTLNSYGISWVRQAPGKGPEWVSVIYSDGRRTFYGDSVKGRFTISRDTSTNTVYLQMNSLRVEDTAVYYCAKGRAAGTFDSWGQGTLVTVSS
VL: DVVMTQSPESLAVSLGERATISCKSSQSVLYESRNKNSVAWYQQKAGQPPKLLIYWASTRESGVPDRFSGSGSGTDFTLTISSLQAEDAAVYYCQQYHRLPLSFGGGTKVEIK

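Phage display of a naive human antibody library on the peptide gave the parent. Variants in AAYL50 differ from the parent at up to three CDR positions; double and triple changes were sampled at random. The scFvs were displayed on barcoded MATa yeast, the peptide on MATalpha yeast. After mating in shaken culture at 30 °C for 16 h, diploids were selected and their barcode pairs sequenced. Each replicate has its own calibration line, from reference interactions of the BCL2 family. Mating was done three times.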

Changes read parent residue, position, new residue, counted from the first residue of the VL shown. Scale: log10 of Kd in nM, estimated from mating counts; low values are strong binders. The mean shown is taken over the replicates in which the pair was detected. A pair that was not seen in that replicate is written "n.d."; this usually means weak binding, but a binder can also be missed. In this assay the parent's reference entry averaged 0.65; its copy inside this library read 1.68. Nonspecific signal, from three strains lacking the peptide, appeared in 18% of pairings of library AAYL50, centred on 4.19 (5% of these signals below 2.99); values are not corrected for it. For each scFv, signals with the empty controls are counted beside the result, with their mean in brackets.

{"changes": "V29H/H98I/S103K", "replicates, log10 nM": "n.d. n.d. n.d.", "mean log10 Kd (nM)": "n.d.", "control signals": "0 of 9"}
{"changes": "K24I/Q95R/P101Q", "replicates, log10 nM": "n.d. 3.39 3.68", "mean log10 Kd (nM)": "3.53", "control signals": "3 of 9 (3.50)"}
{"changes": "S26C/V29D/A57D", "replicates, log10 nM": "n.d. n.d. n.d.", "mean log10 Kd (nM)": "n.d.", "control signals": "0 of 9"}
{"changes": "S33T/Q96I/L102F", "replicates, log10 nM": "3.49 4.21 n.d.", "mean log10 Kd (nM)": "3.85", "control signals": "3 of 9 (5.12)"}
{"changes": "S58M/L102G", "replicates, log10 nM": "n.d. n.d. n.d.", "mean log10 Kd (nM)": "n.d.", "control signals": "2 of 9 (4.09)"}
{"changes": "K24F/Y31R", "replicates, log10 nM": "2.43 2.30 2.77", "mean log10 Kd (nM)": "2.50", "control signals": "1 of 9 (5.68)"}
{"changes": "A40F/E61S/P101K", "replicates, log10 nM": "n.d. n.d. 4.10", "mean log10 Kd (nM)": "4.10", "control signals": "0 of 9"}
{"changes": "N37R/S58C/S103Q", "replicates, log10 nM": "4.59 n.d. 4.19", "mean log10 Kd (nM)": "4.39", "control signals": "0 of 9"}
{"changes": "W56D/R60Y/E61R", "replicates, log10 nM": "2.36 1.98 2.36", "mean log10 Kd (nM)": "2.23", "control signals": "4 of 9 (4.54)"}
{"changes": "V29C/K36P/R60M", "replicates, log10 nM": "n.d. 3.79 n.d.", "mean log10 Kd (nM)": "3.79", "control signals": "4 of 9 (3.81)"}
{"changes": "L30D/N35G/N37K", "replicates, log10 nM": "1.40 1.57 1.75", "mean log10 Kd (nM)": "1.58", "control signals": "2 of 9 (3.68)"}
{"changes": "S26M/R34A/S58W", "replicates, log10 nM": "n.d. n.d. 2.15", "mean log10 Kd (nM)": "2.15", "control signals": "1 of 9 (2.59)"}
{"changes": "S28W/R60G/Q96C", "replicates, log10 nM": "n.d. n.d. n.d.", "mean log10 Kd (nM)": "n.d.", "control signals": "0 of 9"}
{"changes": "Y31N/S33P/W56V", "replicates, log10 nM": "1.98 1.74 1.79", "mean log10 Kd (nM)": "1.84", "control signals": "1 of 9 (4.24)"}
{"changes": "K24H/S33P", "replicates, log10 nM": "0.54 1.05 0.98", "mean log10 Kd (nM)": "0.86", "control signals": "2 of 9 (4.27)"}
{"changes": "S33H/Q95C/Q96E", "replicates, log10 nM": "n.d. 4.96 n.d.", "mean log10 Kd (nM)": "4.96", "control signals": "0 of 9"}
{"changes": "K36D/W56Q/R99H", "replicates, log10 nM": "0.96 1.22 1.34", "mean log10 Kd (nM)": "1.17", "control signals": "2 of 9 (4.81)"}
{"changes": "T59S/H98F/L100S", "replicates, log10 nM": "n.d. n.d. n.d.", "mean log10 Kd (nM)": "n.d.", "control signals": "0 of 9"}
{"changes": "E32D/E61Q/L102D", "replicates, log10 nM": "1.20 1.32 1.16", "mean log10 Kd (nM)": "1.23", "control signals": "1 of 9 (4.40)"}
{"changes": "S25Y/N35A/Q95G", "replicates, log10 nM": "1.98 1.88 1.98", "mean log10 Kd (nM)": "1.95", "control signals": "1 of 9 (4.73)"}
{"changes": "A40W/H98R/P101M", "replicates, log10 nM": "3.20 n.d. n.d.", "mean log10 Kd (nM)": "3.20", "control signals": "2 of 9 (3.74)"}
{"changes": "R99T/L100H/S103V", "replicates, log10 nM": "4.79 n.d. 4.97", "mean log10 Kd (nM)": "4.88", "control signals": "2 of 9 (3.73)"}
{"changes": "S33P/T59C/P101S", "replicates, log10 nM": "4.10 n.d. 4.55", "mean log10 Kd (nM)": "4.32", "control signals": "2 of 9 (4.74)"}

Top 4 of the variants detected in all replicates, tightest first:

{"changes": "K24H/S33P", "replicates, log10 nM": "0.54 1.05 0.98", "mean log10 Kd (nM)": "0.86", "control signals": "2 of 9 (4.27)"}
{"changes": "K36D/W56Q/R99H", "replicates, log10 nM": "0.96 1.22 1.34", "mean log10 Kd (nM)": "1.17", "control signals": "2 of 9 (4.81)"}
{"changes": "E32D/E61Q/L102D", "replicates, log10 nM": "1.20 1.32 1.16", "mean log10 Kd (nM)": "1.23", "control signals": "1 of 9 (4.40)"}
{"changes": "L30D/N35G/N37K", "replicates, log10 nM": "1.40 1.57 1.75", "mean log10 Kd (nM)": "1.58", "control signals": "2 of 9 (3.68)"}